Activity data for ten molecules are collected here from ChEMBL document CHEMBL2021911 (Bioorg Med Chem Lett, 2012).

Amino acid sequences for entries named in this document (tags omitted). A change or cut given only in a name is not applied to a line headed by its entry.
UniProt P11229: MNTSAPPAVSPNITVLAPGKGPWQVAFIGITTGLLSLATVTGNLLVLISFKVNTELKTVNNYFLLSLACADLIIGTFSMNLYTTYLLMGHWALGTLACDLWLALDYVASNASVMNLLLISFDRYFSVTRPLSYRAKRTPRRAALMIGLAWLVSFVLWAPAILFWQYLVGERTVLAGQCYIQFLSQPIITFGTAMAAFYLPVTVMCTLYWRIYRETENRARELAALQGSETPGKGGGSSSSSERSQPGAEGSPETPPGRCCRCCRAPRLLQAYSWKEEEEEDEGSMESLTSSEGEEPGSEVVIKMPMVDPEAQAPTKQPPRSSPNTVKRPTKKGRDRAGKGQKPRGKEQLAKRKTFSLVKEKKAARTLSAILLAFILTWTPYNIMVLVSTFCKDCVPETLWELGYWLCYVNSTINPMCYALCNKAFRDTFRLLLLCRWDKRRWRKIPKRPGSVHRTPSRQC

This assay deals with Muscarinic acetylcholine receptor M1 (Homo sapiens, UniProt P11229). The experiment in a line: Agonist activity at human muscarinic M1 receptor at 30 uM relative to acetylcholine. It is filed as functional.
With `CS(=O)(=O)N1[C@@H]2CC[C@H]1C[C@H](NCCNC(=O)c1ccccc1)C2`, the Activity was < 5%.
As to `CCC(=O)N1[C@@H]2CC[C@H]1C[C@H](NCCNC(=O)c1ccccc1)C2`, the Activity is < 5%.
As to `CCOC(=O)N1[C@@H]2CC[C@H]1C[C@H](NCCNC(=O)c1ccccc1C(F)(F)F)C2`, the Activity is < 5%.
Then `CCCC(=O)N1[C@@H]2CC[C@H]1C[C@H](NCCNC(=O)c1ccccc1)C2`, with < 5%; and `CCOC(=O)N1[C@@H]2CC[C@H]1C[C@H](NCCNC(=O)c1ccc[nH]1)C2`, with < 5%.
As for `CCS(=O)(=O)N1[C@@H]2CC[C@H]1C[C@H](NCCNC(=O)c1ccccc1)C2`, the Activity is < 5%.
As for `CCOC(=O)N1[C@@H]2CC[C@H]1C[C@H](NCCNC(=O)NC1CC1)C2`, the Activity was < 5%.
Then `O=C(NCCN[C@@H]1C[C@H]2CC[C@@H](C1)N2C(=O)Oc1ccccc1)c1ccccc1`, with < 5%; and `CN(C)C(=O)N1[C@@H]2CC[C@H]1C[C@H](NCCNC(=O)c1ccccc1)C2`, with < 5%.
Then `CCOC(=O)N1[C@@H]2CC[C@H]1C[C@H](NCCNS(=O)(=O)c1cccc(OC)c1)C2`, with < 5%.
